From ChEMBL document CHEMBL1125007 (J Med Chem, 1990)

Columns and labels:
[1] = Rate constant for alkylation of 4-(4-nitrobenzyl)pyridine; type: ADME
[2] = Rate constant for hydrolysis in aqueous acetone.; type: ADME; set-up: scale not given here; settings: buffer

`Cc1ccc(N(CCCl)CCCl)cc1` showed a KNBP [1] of 1.11e+06 s⁻¹ and a KH [2] of 47100 s⁻¹.
